Data from publication PMC10278977 (2023).

Molecular target: recombinant unmethylated bovine actin (bovine, UniProt P60712 1-375)
Assay: MST

B1: NMAD-1 truncation (Δ1–31), NMAD-1(32–291) (domain or fragment)
chain: EDKHVNYKVFIYDHIRQIAIPTTNLNSQSSLEDIIDESTSCQSVSTDGSIEIDGLTLIHNFLSESEESKILNMIDTVEWAQSQSGRRKQDYGPKVNFKHKKVKTDTFVGMPEYADMLLNKMSEYDVKKLGNYQPFEMCNLEYEEVKKSAIEMHQDDMWIWGNRLISINLINGSVMTLSNDNKSFLCYVHMPHRSLLCMADECRYDWKHGVLAHHIRGRRIALTMREAAKDFAEGGELYEKYGAELIRLGNIRVPLSKTSV
A Kd of 13.4 µM was found for B1 in this work.
